Measurements: paper PMC10287566, “Signaling-specific inhibition of the CB1 receptor for cannabis use disorder: phase 1 and phase 2a randomized trials” (Nature Medicine, 2023)

Tests used:
healthy volunteers [1] = assay: Phase 1 multiple-ascending-dose (MAD) study, safety; settings: 0.6-6 mg once a day 7 d
volunteers with CUD = assay: Phase 2a study, safety; assay type: in vivo, human; settings: n = 29
Excerpt: Data from the first dose level were reviewed by the Data Safety Monitoring Board before ascending to the next dose level.
On day 6 of each period, before discharge from the research center, participants had sitting blood pressure and pulse rate measurements, clinical laboratory tests (chemistry, hematology and urinalysis) and body weight taken. The study start date was 23 October 2018; primary completion date was 31 July 2020; and actual study completion date was 1 January 2021. After the second study phase, participants were contacted 28 d after discharge so that we could inquire about the occurrence of any serious AEs (including pregnancies) that may have occurred since leaving the research site.

healthy volunteers [2] = assay: Phase 1 single-ascending-dose (SAD) study, safety; settings: 0.2-6 mg single dose

Measured: safety and tolerability

COc1ccc(CO[C@H]2CC[C@@]3(C)C(=CC[C@H]4[C@@H]5CC[C@H](C(C)=O)[C@@]5(C)CC[C@@H]43)C2)cc1 [AEF0117, 3β-(4-methoxybenzyloxy)pregn-5-en-20-one]
safe and well tolerated: all assays above
